According to article PMC7281150, “Inspired by Sea Urchins: Warburg Effect Mediated Selectivity of Novel Synthetic Non-Glycoside 1,4-Naphthoquinone-6S-Glucose Conjugates in Prostate Cancer” (Marine Drugs, 2020):
Read-outs that look alike come from different tables or passages of the source.

Key:
in vitro [1] = format: cell-based; settings: human, 22Rv1, 10 μM, read-out: Viable cells (Annexin-V-FITC(–)/PI(–), LL quadrant)
Experimental: To examine induction of drug-induced apoptosis FACS-based analysis with Annexin-V-FITC and propidium iodide (PI) double staining was performed as previously described. Cells were seeded in 6-well plates (2 × 10^5 cells/well) and incubated overnight. Treatment with the substances was performed in 2 mL fresh culture media/well for 48 h. Cells were harvested by trypsination, stained with Annexin-V-FITC and PI for 15 min, and analyzed using FACS Calibur (BD Bioscience, San Jose, CA, USA). The results were quantified using BD Bioscience Cell Quest Pro v.5.2.1. software (BD Bioscience, San Jose, CA, USA).

in vitro [2] = format: cell-based; settings: human, PC-3, 10 μM, read-out: Viable cells (Annexin-V-FITC(–)/PI(–), LL quadrant)

## COc1ccc(C[C@H]2NC[C@H](O)[C@H]2OC(C)=O)cc1 [Aniso, Anisomycin, reference compound]
In vitro [1]
  viability at 48 h, 10 µM: 47.5 ± 4.1%
In vitro [2]; + zVAD (100 µM, 1 h pre-treatment)
  viability at 48 h, 10 µM: 91.7 ± 2.6%
In vitro [2]; - zVAD
  viability at 48 h, 10 µM: 85.6 ± 1%
